In brackets after ≈: the same amount, converted by molar mass. Marks after values point to notes of the source that are not given here.

Common to all, as to assay type: cell-based
Assay [1] deals with E. coli ATCC 8739. The following applies: cation-adjusted MHB, 90 min incubation at 37°C, plated on LB agar 12–24 h, lowest concentration giving less than one CFU (≥99.9% reduction), mean ± SD, at least three biological repeats. How it is done: (§1) For the antimicrobial peptide assays, a 10 mL starter culture was produced by taking single colonies from LB agar plates to inoculate in Lysogeny/Luria Broth (1% w/v Oxoid Tryptone, 0.5% w/v NaCl, 0.5% w/v Oxoid Yeast Extract, pH 7.0, Thermo Scientific Pty, Ltd., Sydney, Australia) for bacteria; S. aureus ATCC 29213 and E. coli ATCC 8739 were grown aerobically at 37°C in an orbital shaker (Minitron, Infors HT) at 200 rpm. After overnight incubation, 0.5–1.0 mL of the starter culture was used to inoculate fresh LB broth (20 mL), and its growth was monitored at 600 nm using a spectrophotometer (model Varian Cary 50 Bio UV-Vis). Bacteria were harvested during the late exponential growth phase, and CFUs/mL were determined using the growth curve data set that correlated OD600 to CFUs/mL.
(§2) Antibacterial assays were undertaken to determine the minimum inhibitory concentration (MIC), the minimum bactericidal concentration (MBC), and the level of membrane disruption of each of the antimicrobial peptides (AMPs) and multimerized AMPs. For each bacterium, a stock solution (2 × 10^6 cells/mL) in cation-adjusted Mueller Hinton Broth (MHB) was made, and an aliquot was incubated with AMPs within 15 min from viable cell count and stock preparation. All AMPs were dissolved in 5% dimethylsulfoxide (DMSO) and 1 mg/mL stock solutions prepared in PBS. Serial dilutions with 2 x dilution factor (16.87–0.18 μM) of the AMP in cation-adjusted MHB (100 μL/well) were made immediately prior to the addition of bacteria. […] Aliquots (100 μL) of the bacterial stock solution were added to the AMP serial dilutions (final bacterial concentration 1 × 10^5 cells/well) and incubated at 37°C for 90 min. Bacteria were also incubated in the absence of AMP to serve as a growth control for the assay. After the 90-min incubation period, the antimicrobial activity (MIC and MBC) was determined as follows:
(§3) The CLSI protocol was followed to determine MBC. After incubation, bacteria were serially diluted (1:10) in PBS, plated on LB agar, and incubated for 12–24 h at 37°C; then, the CFUs were quantified. The MBC was thus determined as the lowest concentration (μM) of AMP resulting in less than one CFU. The data were fitted to an exponential model, and as such, 1 CFU was considered to be a ≥99.9% reduction in the initial colony count after incubation.

The test system of assay [2] is S. aureus ATCC 29213. The following applies: cation-adjusted MHB, 90 min incubation at 37°C, plated on LB agar 12–24 h, lowest concentration giving less than one CFU (≥99.9% reduction), mean ± SD, at least three biological repeats. How it is done:
as §1, §2, §3

The test system of assay [3] is E. coli ATCC 8739. The following applies: cation-adjusted MHB, 1 × 10^5 cells/well, 90 min incubation with peptide at 37°C, then growth monitored 20 h at OD630, Lambert and Pearson analysis, mean ± SD, at least three biological repeats. On the procedure: as §1, §2
(§4) For MIC, the Clinical and Laboratory Standards Institute (CLSI) broth microdilution assay was followed, with the modifications being that due to the rapid action of the AMPs, the assay incubation time was shortened from 16–20 h to 90 min ([CLSI, 2018]). In brief, after the 90 min incubation, bacterial growth was monitored at 10 min intervals with shaking at each interval over a 20 h period at OD630 using a BioTek 800™ TS Absorbance Reader (Millennium Science Pty Ltd. Melbourne, Australia), which incubated the cultures at 37°C. The MIC was calculated using the Lambert and Pearson growth curve analysis method by plotting the relative growth at each peptide concentration compared to maximal growth (determined as the point when bacteria incubated in broth alone entered the stationary phase of growth, 100% growth).

In assay [4] the test system is S. aureus ATCC 29213. The following applies: cation-adjusted MHB, 1 × 10^5 cells/well, 90 min incubation with peptide at 37°C, then growth monitored 20 h at OD630, Lambert and Pearson analysis, mean ± SD, at least three biological repeats. On the procedure: as §1, §2, §4

In general, MBC refers to the smallest concentration meeting the test's criterion for killing. A word on the MIC: it is the smallest concentration in the dilution series that meets the test's criterion for growth inhibition. Consider `CC[C@H](C)[C@H](NC(=O)CN)C(=O)NCC(=O)N[C@@H](C)C(=O)N[C@H](C(=O)N[C@@H](CC(C)C)C(=O)N[C@@H](CCN)C(=O)N[C@H](C(=O)N[C@@H](CC(C)C)C(=O)N[C@H](C(=O)N[C@H](C(=O)NCC(=O)N[C@@H](CC(C)C)C(=O)N1CCC[C@H]1C(=O)N[C@@H](C)C(=O)N[C@@H](CC(C)C)C(=O)N[C@H](C(=O)N[C@@H](CO)C(=O)N[C@@H](Cc1c[nH]c2ccccc12)C(=O)N[C@H](C(=O)N[C@@H](CCN)C(=O)N[C@@H](CCCNC(=N)N)C(=O)N[C@@H](CCN)C(=O)N[C@@H](CCCNC(=N)N)C(=O)N[C@@H](CCC(N)=O)C(=O)N[C@@H](CCC(N)=O)C(N)=O)[C@@H](C)CC)[C@@H](C)CC)[C@@H](C)O)[C@@H](C)O)C(C)C)C(C)C` [3. Lys → Dab melittin], for which the MBC in the assay with E. coli ATCC 8739 [1] is given as 5.62 ± 1.10 ^a ^, ^b- µM; against S. aureus ATCC 29213 [2], 1.76 ± 0.92 µM (≈ 4.86 µg/mL). Further, the MIC is 5.51 ± 0.52 ^b- µM in the assay on E. coli ATCC 8739 [3] and 1.47 ± 0.08 µM (≈ 4.06 µg/mL) in the assay with S. aureus ATCC 29213 [4].
`CC[C@H](C)[C@H](NC(=O)CN)C(=O)NCC(=O)N[C@@H](C)C(=O)N[C@H](C(=O)N[C@@H](CC(C)C)C(=O)N[C@@H](CCCCN)C(=O)N[C@H](C(=O)N[C@@H](CC(C)C)C(=O)N[C@H](C(=O)N[C@H](C(=O)NCC(=O)N[C@@H](CC(C)C)C(=O)N1CCC[C@H]1C(=O)N[C@@H](C)C(=O)N[C@@H](CC(C)C)C(=O)N[C@H](C(=O)N[C@@H](CO)C(=O)N[C@@H](Cc1c[nH]c2ccccc12)C(=O)N[C@H](C(=O)N[C@@H](CCCCN)C(=O)N[C@@H](CCCNC(=N)N)C(=O)N[C@@H](CCCCN)C(=O)N[C@@H](CCCNC(=N)N)C(=O)N[C@@H](CCC(N)=O)C(=O)N[C@@H](CCC(N)=O)C(=O)NCCCC[C@H](N)C(=O)NCC(=O)N[C@H](C(=O)NCC(=O)N[C@@H](C)C(=O)N[C@H](C(=O)N[C@@H](CC(C)C)C(=O)N[C@@H](CCCCN)C(=O)N[C@H](C(=O)N[C@@H](CC(C)C)C(=O)N[C@H](C(=O)N[C@H](C(=O)NCC(=O)N[C@@H](CC(C)C)C(=O)N1CCC[C@H]1C(=O)N[C@@H](C)C(=O)N[C@@H](CC(C)C)C(=O)N[C@H](C(=O)N[C@@H](CO)C(=O)N[C@@H](Cc1c[nH]c2ccccc12)C(=O)N[C@H](C(=O)N[C@@H](CCCCN)C(=O)N[C@@H](CCCNC(=N)N)C(=O)N[C@@H](CCCCN)C(=O)N[C@@H](CCCNC(=N)N)C(=O)N[C@@H](CCC(N)=O)C(=O)N[C@@H](CCC(N)=O)C(N)=O)[C@@H](C)CC)[C@@H](C)CC)[C@@H](C)O)[C@@H](C)O)C(C)C)C(C)C)[C@@H](C)CC)[C@@H](C)CC)[C@@H](C)CC)[C@@H](C)O)[C@@H](C)O)C(C)C)C(C)C` [6. Antiparallel dimer]: the MBC against E. coli ATCC 8739 [1] is on record as 5.64 ± 1.08 ^a ^, ^b- µM; in the assay on S. aureus ATCC 29213 [2], 7.25 ± 1.20 ^a ^, ^b+ µM. The MIC was 6.02 ± 1.22 ^b- µM against E. coli ATCC 8739 [3] and 5.18 ± 0.36 ^a ^, ^b+ µM against S. aureus ATCC 29213 [4].
As to `CC[C@H](C)[C@H](NC(=O)CN)C(=O)NCC(=O)N[C@@H](C)C(=O)N[C@H](C(=O)N[C@@H](CC(C)C)C(=O)N[C@@H](CN)C(=O)N[C@H](C(=O)N[C@@H](CC(C)C)C(=O)N[C@H](C(=O)N[C@H](C(=O)NCC(=O)N[C@@H](CC(C)C)C(=O)N1CCC[C@H]1C(=O)N[C@@H](C)C(=O)N[C@@H](CC(C)C)C(=O)N[C@H](C(=O)N[C@@H](CO)C(=O)N[C@@H](Cc1c[nH]c2ccccc12)C(=O)N[C@H](C(=O)N[C@@H](CN)C(=O)N[C@@H](CCCNC(=N)N)C(=O)N[C@@H](CN)C(=O)N[C@@H](CCCNC(=N)N)C(=O)N[C@@H](CCC(N)=O)C(=O)N[C@@H](CCC(N)=O)C(N)=O)[C@@H](C)CC)[C@@H](C)CC)[C@@H](C)O)[C@@H](C)O)C(C)C)C(C)C` [4. Lys → Dap melittin], the MBC in the assay on E. coli ATCC 8739 [1] is 5.64 ± 1.17 ^a ^, ^b- µM; with S. aureus ATCC 29213 [2] it was 2.76 ± 0.01 ^b+ µM. For the same compound, the MIC against E. coli ATCC 8739 [3] was 5.62 ± 0.81 ^b- µM; in the assay on S. aureus ATCC 29213 [4], 1.59 ± 0.15 ^b+ µM.
For the compound `CC[C@H](C)[C@H](NC(=O)CN)C(=O)NCC(=O)N[C@@H](C)C(=O)N[C@H](C(=O)N[C@@H](CC(C)C)C(=O)N[C@@H](CCCN)C(=O)N[C@H](C(=O)N[C@@H](CC(C)C)C(=O)N[C@H](C(=O)N[C@H](C(=O)NCC(=O)N[C@@H](CC(C)C)C(=O)N1CCC[C@H]1C(=O)N[C@@H](C)C(=O)N[C@@H](CC(C)C)C(=O)N[C@H](C(=O)N[C@@H](CO)C(=O)N[C@@H](Cc1c[nH]c2ccccc12)C(=O)N[C@H](C(=O)N[C@@H](CCCN)C(=O)N[C@@H](CCCNC(=N)N)C(=O)N[C@@H](CCCN)C(=O)N[C@@H](CCCNC(=N)N)C(=O)N[C@@H](CCC(N)=O)C(=O)N[C@@H](CCC(N)=O)C(N)=O)[C@@H](C)CC)[C@@H](C)CC)[C@@H](C)O)[C@@H](C)O)C(C)C)C(C)C` [2. Lys → Orn melittin], the MBC in the assay with E. coli ATCC 8739 [1] is listed as 7.10 ± 1.68 ^b- µM; in the assay on S. aureus ATCC 29213 [2], 1.83 ± 1.21 µM (≈ 5.13 µg/mL). Also, the MIC is on record as 4.32 ± 0.31 ^a ^, ^b- µM against E. coli ATCC 8739 [3] and 1.28 ± 0.06 ^b- µM against S. aureus ATCC 29213 [4].
In the assay on S. aureus ATCC 29213 [4], `CC[C@H](C)[C@H](NC(=O)CN)C(=O)NCC(=O)N[C@@H](C)C(=O)N[C@H](C(=O)N[C@@H](CC(C)C)C(=O)N[C@@H](CCCCN)C(=O)N[C@H](C(=O)N[C@@H](CC(C)C)C(=O)N[C@H](C(=O)N[C@H](C(=O)NCC(=O)N[C@@H](CC(C)C)C(=O)N1CCC[C@H]1C(=O)N[C@@H](C)C(=O)N[C@@H](CC(C)C)C(=O)N[C@H](C(=O)N[C@@H](CO)C(=O)N[C@@H](Cc1c[nH]c2ccccc12)C(=O)N[C@H](C(=O)N[C@@H](CCCCN)C(=O)N[C@@H](CCCNC(=N)N)C(=O)N[C@@H](CCCCN)C(=O)N[C@@H](CCCNC(=N)N)C(=O)N[C@@H](CCC(N)=O)C(=O)N[C@@H](CCC(N)=O)C(N)=O)[C@@H](C)CC)[C@@H](C)CC)[C@@H](C)O)[C@@H](C)O)C(C)C)C(C)C` [1. Melittin, Melittin] showed an MIC of 1.44 ± 0.11 µM (≈ 4.1 µg/mL).

The values are drawn from PMC11492869, “Dimerization and lysine substitution of melittin have differing effects on bacteria” (Frontiers in Pharmacology, 2024).
